# In patent publication US20230039917A1, “EXO-AZA SPIRO INHIBITORS OF MENIN-MLL INTERACTION” (Janssen Pharmaceutica NV, priority 2017, published 2023):
# Amino acid sequences for entries named in this document (tags omitted). Chains listed by the source or under a name are the forms on record and can include a tag or linker. Residues count along the entry.
# UniProt O00255, 1-610 with tags or gaps F410E/T541A: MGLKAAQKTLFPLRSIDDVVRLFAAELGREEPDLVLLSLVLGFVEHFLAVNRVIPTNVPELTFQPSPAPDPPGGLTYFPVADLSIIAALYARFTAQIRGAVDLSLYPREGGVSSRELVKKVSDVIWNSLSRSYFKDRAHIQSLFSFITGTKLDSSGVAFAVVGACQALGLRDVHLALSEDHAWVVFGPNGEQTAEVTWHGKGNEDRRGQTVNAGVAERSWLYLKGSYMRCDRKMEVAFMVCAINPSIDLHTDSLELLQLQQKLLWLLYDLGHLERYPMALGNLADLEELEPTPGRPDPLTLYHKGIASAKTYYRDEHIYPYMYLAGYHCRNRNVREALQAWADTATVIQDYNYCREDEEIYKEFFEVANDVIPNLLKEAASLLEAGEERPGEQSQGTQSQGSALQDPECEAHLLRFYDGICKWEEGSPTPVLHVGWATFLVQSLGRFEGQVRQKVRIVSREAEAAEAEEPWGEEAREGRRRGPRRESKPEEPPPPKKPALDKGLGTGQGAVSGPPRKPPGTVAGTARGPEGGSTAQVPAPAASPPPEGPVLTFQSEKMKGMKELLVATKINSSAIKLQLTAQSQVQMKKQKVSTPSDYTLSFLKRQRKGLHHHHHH
# Target: menin.FITC-MBM1 complex (terbium chelate-labeled menin) (Homo sapiens, UniProt O00255, F410E/T541A)
# Experiment: Menin/MLL homogenous time-resolved fluorescence (HTRF) assay
# Conditions: read-out: (2) location 2 Menin HTRF assay (IC50 (nM))
row,IC50 [nM],Structure (SMILES)
1,4.2,"CNC(=O)c1ccc(NC2CC3(CCN(c4ncnc5sc(CC(F)(F)F)cc45)C3)C2)c(C)c1 (single isomer, unassigned)"
2,6.5,Cn1c(=O)[nH]c2ccc(CNC3CCC4(C3)CN(c3ncnc5sc(CC(F)(F)F)cc35)C4)cc21 (centres unmarked)
